Test results reported in publication PMC7723054.
The list shows a part of the results.

B1: hsa-mir-4444-1_4444-2 (structured_RNA)
RNA: GGGAUCACGAUACGAGUCUCCAGAGAACGGUGUACGAAGUUUCAGCCGGUCCCAUAUUGAACUCGGCUGAAGCUUCGUGCAC
B2: hsa-mir-3158-1 (structured_RNA)
RNA: GGGAGCAGACCCACAAUGAGUAUAACUGGGUGUACGAAGUUUCAGCCCUUCUGCUUACAGGUAUUGGAAGGGCUGAAGCUUCGUGCAC
B3: hsa-mir-548h-3 (structured_RNA)
RNA: GGGAUAAGUAUGCCGAGGUCGACAACAAGGUGUACGAAGUUUCAGCUGUCAUUGAAAGUAAUAGCAGCUGAAGCUUCGUGCAC
B4: hsa-mir-1296 (structured_RNA)
RNA: GGGAAACCGAAGAUUAGGCCCUUGUUCGGGUGUACGAAGUUUCAGCAUCUCCUUUAGGAAAACCUUCUGUGGGGAGUGCUGAAGCUUCGUGCAC
B5: hsa-mir-4258 (structured_RNA)
RNA: GGGAAUUACGCCCGGGUCCCAAUGGUUUGGUGUACGAAGUUUCAGCUGGAGGCUGACCUCUUACUUUCGGUCGGUCUUCUUGCUGAAGCUUCGUGCAC
B6: hsa-mir-4533 (structured_RNA)
RNA: GGGAUCGUAGCGGACGUGCGACAUUUUCGGUGUACGAAGUUUCAGCCGCUGCUGGCUGCCUUCCAGCGGCUGAAGCUUCGUGCAC
B7: hsa-mir-4733 (structured_RNA)
RNA: GGGAACAUAGUGCACCGUAACUCGUAGAGGUGUACGAAGUUUCAGCGGUGGCAAUCAAGGUCUAGCCACCGCUGAAGCUUCGUGCAC
B8: hsa-mir-7849 (structured_RNA)
RNA: GGGAACGUCCACUACGGGUCGAAUCGUUGGUGUACGAAGUUUCAGCUGACUACUUCGAAAAUGGGAAGUAGACAGCUGAAGCUUCGUGCAC
B9: hsa-mir-1285-2 (structured_RNA)
RNA: GGGACAGUUUGGCUGUCGCCUAGUGGAAGGUGUACGAAGUUUCAGCCAAUUUGAGACCAAUGCUGAAGCUUCGUGCAC
B10: hsa-mir-7114 (structured_RNA)
RNA: GGGAAUUCGGUGAACGCAAGCUCAGCCUGGUGUACGAAGUUUCAGCCUGUCCCCUGCCACUGGGUGACCGCUGAAGCUUCGUGCAC
B11: hsa-mir-5006 (structured_RNA)
RNA: GGGAAAUGCGGGUUGAAGCUACCUUAGCGGUGUACGAAGUUUCAGCGGAAGGGAGCCCCAUUUACAGUGGUAACUUCCUUUCCGCUGAAGCUUCGUGCAC
B12: hsa-mir-4787 (structured_RNA)
RNA: GGGAACAUAUGUACGCUGGCGUUCACGAGGUGUACGAAGUUUCAGCCAUCCCGGACGGCCUGUGAGGGAUGGCUGAAGCUUCGUGCAC
B13: hsa-mir-1302-5 (structured_RNA)
RNA: GGGCUAAGUUGAUGAGUGACGAUACGACGGUGUACGAAGUUUCAGCCCAUGUAAUCUUUGGGCUGAAGCUUCGUGCAC

How the values were obtained:
Assay in all cases: FOREST: bead pull-down of RNA structure library v1, barcode microarray; U1A/LIN28A: 20 mM HEPES pH 7.5, 80 mM KCl, 20 mM NaCl, 10% glycerol, 2 mM DTT, 0.1 ug/uL BSA, 4 C; BG4/CIRBP/DHX36: 10 mM Tris-HCl pH 7.5, 100 mM KCl (or LiCl),; high values mean tight binding
LIN28A = molecular target: T1, LIN28A (human?, UniProt Q9H9Z2 1-209)
T1 sequence: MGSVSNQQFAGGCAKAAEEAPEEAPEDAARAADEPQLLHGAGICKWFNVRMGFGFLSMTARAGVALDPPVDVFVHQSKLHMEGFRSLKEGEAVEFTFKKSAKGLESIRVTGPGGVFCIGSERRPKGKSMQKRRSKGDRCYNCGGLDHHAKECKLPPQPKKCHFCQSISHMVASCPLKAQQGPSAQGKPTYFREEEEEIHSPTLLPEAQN

CIRBP = molecular target: T2, CIRBP (Homo sapiens, UniProt Q14011 1-172)
T2 sequence: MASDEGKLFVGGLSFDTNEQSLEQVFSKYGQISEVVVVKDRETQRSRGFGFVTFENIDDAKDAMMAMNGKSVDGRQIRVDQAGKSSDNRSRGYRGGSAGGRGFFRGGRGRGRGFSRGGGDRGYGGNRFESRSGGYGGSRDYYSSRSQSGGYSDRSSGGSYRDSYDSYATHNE

DHX36 = molecular target: T3, DHX36 (Homo sapiens, UniProt Q9H2U1 1-1008)
T3 sequence: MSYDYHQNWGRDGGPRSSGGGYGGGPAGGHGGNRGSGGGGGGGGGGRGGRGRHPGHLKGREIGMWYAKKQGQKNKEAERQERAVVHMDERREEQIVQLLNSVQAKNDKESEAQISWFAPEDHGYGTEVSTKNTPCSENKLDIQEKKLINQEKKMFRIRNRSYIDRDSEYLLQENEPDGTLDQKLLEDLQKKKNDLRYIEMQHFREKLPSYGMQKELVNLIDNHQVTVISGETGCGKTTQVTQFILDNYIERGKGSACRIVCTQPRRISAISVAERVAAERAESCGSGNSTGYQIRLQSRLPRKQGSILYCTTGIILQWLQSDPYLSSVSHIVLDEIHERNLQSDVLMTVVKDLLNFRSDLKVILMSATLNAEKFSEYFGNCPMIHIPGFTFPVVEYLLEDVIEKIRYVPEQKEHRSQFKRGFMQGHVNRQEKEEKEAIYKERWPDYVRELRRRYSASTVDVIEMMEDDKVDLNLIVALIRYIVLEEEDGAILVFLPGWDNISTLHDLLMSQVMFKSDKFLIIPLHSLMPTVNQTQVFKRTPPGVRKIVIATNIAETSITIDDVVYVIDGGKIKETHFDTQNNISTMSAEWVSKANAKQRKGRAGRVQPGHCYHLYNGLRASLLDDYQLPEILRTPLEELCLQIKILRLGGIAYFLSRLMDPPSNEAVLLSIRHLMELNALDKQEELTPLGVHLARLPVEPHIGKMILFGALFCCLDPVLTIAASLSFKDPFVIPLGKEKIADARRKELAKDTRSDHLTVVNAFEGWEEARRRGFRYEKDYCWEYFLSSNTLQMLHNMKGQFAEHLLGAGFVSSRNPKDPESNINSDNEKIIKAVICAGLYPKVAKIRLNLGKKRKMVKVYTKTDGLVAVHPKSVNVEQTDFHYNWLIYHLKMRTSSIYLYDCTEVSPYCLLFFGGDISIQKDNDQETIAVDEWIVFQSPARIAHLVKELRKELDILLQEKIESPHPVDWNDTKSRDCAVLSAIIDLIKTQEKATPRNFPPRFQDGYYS

Binder	binding signal (LIN28A)	binding signal (CIRBP)	binding signal (DHX36)
B1	-0.752 z-score	-0.539 z-score	-1.08 z-score
B2	-0.752 z-score	-0.56 z-score	-1.59 z-score
B3	-0.752 z-score	-0.105 z-score	-0.175 z-score
B4	-0.754 z-score	0.0157 z-score	-1.04 z-score
B5	-0.755 z-score	-0.533 z-score	-0.468 z-score
B6	-0.756 z-score	-0.456 z-score	-0.709 z-score
B7	-0.76 z-score	-2.89 z-score	-2.09 z-score
B8	-0.76 z-score	-0.799 z-score	0.114 z-score
B9	-0.763 z-score	-0.899 z-score	-0.159 z-score
B10	-0.763 z-score	-0.741 z-score	-0.941 z-score
B11	-0.763 z-score	-1.64 z-score	0.07 z-score
B12	-0.766 z-score	0.379 z-score	-0.513 z-score
B13	-0.767 z-score	-0.535 z-score	0.795 z-score
